## Antibody variant affinities, Ab-95 light chain, assay 2

Reference: Engelhart et al. 2022, doi:10.1038/s41597-022-01779-4. File: FLAb, binding data.

Binding partner: SARS-CoV-2 spike HR2 peptide, sequence PDVDLGDISGINAS.

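The parent was found by panning a naive human phage display library on the peptide. Library AAYL52 holds single substitutions and randomly drawn double and triple substitutions in the CDRs. In AlphaSeq, yeast of one mating type display the scFv and yeast of the other type display the target. After mating in shaken culture at 30 °C for 16 h, diploids were selected and their barcode pairs sequenced. The ratio of observed to expected reads was calibrated, replicate by replicate, on BCL2-family standards whose Kd was known from biolayer interferometry. The assay was run in three technical replicates.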

Each scFv is VH, the linker GGGGSGGGGSGGGGS, VL, as in the parent Ab-95, and differs from it in the CDRs of the light chain only.
VH: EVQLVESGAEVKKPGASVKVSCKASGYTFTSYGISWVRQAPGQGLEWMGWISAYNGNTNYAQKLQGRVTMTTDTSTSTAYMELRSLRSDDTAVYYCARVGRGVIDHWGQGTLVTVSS
VL: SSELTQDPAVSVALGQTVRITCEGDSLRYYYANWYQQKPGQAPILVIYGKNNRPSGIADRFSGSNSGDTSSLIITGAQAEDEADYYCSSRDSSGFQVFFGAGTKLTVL

The parent's light chain CDRs are EGDSLRYYYAN, GKNNRPS, SSRDSSGFQVF; each variant's own CDRs replace them letter for letter.
The read-out is the apparent dissociation constant on a log10 scale (nM): the lower, the stronger.
A mean of the replicates is given; it leaves out those without a signal.
Where no diploid with the target was found in that replicate, the entry reads "n.d.": below detection, most likely a poor binder, though not proof of it.
Empty control strains, which show no peptide, gave a signal in 28% of pairings with library AAYL52; the median was 3.91 and 95% of these signals were weaker than 2.90. No background was subtracted. For each scFv, signals with the empty controls are counted beside the result, with their mean in brackets.

CDR-L1 | CDR-L2 | CDR-L3 | replicates, log10 nM | log10 Kd (nM), mean | signal with controls
EGDSLRLYYAN | GKNIRPS | SSRDSSGFQVP | 3.68 3.30 3.37 | 3.45 | 6 of 9 (4.76)
EGDSLRYYYLN | GKNNRPS | KSWDSSGFQVF | n.d. n.d. n.d. | n.d. | 1 of 9 (4.40)
EGDSLRYYPAN | GKNNRQS | SSNDSSGFQVF | n.d. n.d. n.d. | n.d. | 0 of 9
EGDSLRYYYAN | GKNNRPS | SERDRSGFQHF | n.d. n.d. n.d. | n.d. | 0 of 9
EGDSLRYYYAN | GKNNRRS | SSRLSSGFQDF | 3.26 n.d. n.d. | 3.26 | 0 of 9
EGDSLAYYYAN | GKNNRPS | GSRDSSGSQVF | 3.54 3.52 4.29 | 3.78 | 2 of 9 (3.50)
EGDSLRYLYAN | GKNNKHS | SSRDSSGFQVF | n.d. 3.36 n.d. | 3.36 | 0 of 9
EGDSLRDYYAN | GKNNRPS | SSMDSSGFQVY | 3.08 3.31 2.70 | 3.03 | 3 of 9 (4.48)
EGDSLRYYYAT | GKNNRPS | SSRDSSGFFVG | 3.75 n.d. n.d. | 3.75 | 1 of 9 (4.13)
EGDSLRYYYFA | GKNNRPS | SSRDSSGFQKF | n.d. 3.87 n.d. | 3.87 | 2 of 9 (4.14)
EGDSLRYYYAF | GKNVRPS | SSRDSSGFQWF | n.d. n.d. n.d. | n.d. | 3 of 9 (4.47)
EGDSLQYYRAN | GKNNRPS | SSRDSSGFQVK | 3.47 3.49 2.80 | 3.25 | 1 of 9 (3.59)
EGDSLRYYYAN | GKNNEPS | SSRDASGFKVF | 4.14 n.d. n.d. | 4.14 | 4 of 9 (4.09)
EGDSLRYYYKN | GKNNRPS | SLRDSSAFQVF | 4.96 3.94 n.d. | 4.45 | 3 of 9 (4.40)
EGDSERYYYAN | GKNNRPS | RSRDSNGFQVF | n.d. 3.58 n.d. | 3.58 | 3 of 9 (3.08)
EGDSLTYYYAN | GKNNRPS | PSRDSSGGQVF | 4.21 3.02 2.71 | 3.32 | 3 of 9 (3.82)
DGDMLRYYYAN | GKNNRPS | SSRDSSGFQVF | 3.37 3.58 3.46 | 3.47 | 2 of 9 (4.12)
EGDSLNYYMAN | GKNNRPS | SSRDSSGFHVF | 2.10 1.93 1.52 | 1.85 | 5 of 9 (4.01)
EGDSLRTYYAN | GKNYRKS | SSRDSSGFQVF | 4.23 n.d. n.d. | 4.23 | 0 of 9
EGNSLRYYTAN | GKNNRPS | SSRDSSGFQVF | 2.24 2.03 2.09 | 2.12 | 1 of 9 (3.90)
CGDSLRYYYAN | GKNNRPS | YTRDSSGFQVF | n.d. n.d. n.d. | n.d. | 0 of 9
EGDSLRYYYDN | GKNNRES | SSRDSSGFQAF | n.d. n.d. n.d. | n.d. | 2 of 9 (3.62)
EGDSLRYSYAN | GKNNRPS | SGVDSSGFQVF | n.d. n.d. n.d. | n.d. | 2 of 9 (3.72)
EGISLRYYYAN | YKNNRPS | SSRDASGFQVF | 3.75 4.07 n.d. | 3.91 | 5 of 9 (3.70)
EGVSLRWYYAN | GKNNRGS | SSRDSSGFQVF | 3.54 3.42 2.85 | 3.27 | 0 of 9
EGDSLRYYYAN | GKNNRPS | SSRDSSGFVVF | 2.51 2.69 2.41 | 2.54 | 5 of 9 (3.90)
EGDSLRYIYAN | GCNNRPS | SSRDSSGFQVF | n.d. n.d. n.d. | n.d. | 1 of 9 (2.43)
EEDSLRYYQAN | GKNNRPS | SQRDSSGFQVF | 3.97 n.d. n.d. | 3.97 | 1 of 9 (4.44)
EGDSLEYYYAN | GKNNRPI | SSRWSSGFQVF | 3.04 3.10 2.21 | 2.78 | 4 of 9 (3.79)
EGQSLRYIYAN | GKNNRPS | SSCDSSGFQVF | 3.04 3.46 n.d. | 3.25 | 5 of 9 (4.20)
EGDSLRYYYAN | GKNNRIS | SSRMSSGRQVF | 4.77 4.59 4.08 | 4.48 | 4 of 9 (3.77)